# Test results published in US6537522B1, “Neuroprobes for mapping monoamine reuptake sites” (Amersham PLC, priority 1992, dated 2003).
# Chains of the proteins cited; added tags and fusions are not shown. Residues count along the entry.
# UniProt Q63380, 1-617: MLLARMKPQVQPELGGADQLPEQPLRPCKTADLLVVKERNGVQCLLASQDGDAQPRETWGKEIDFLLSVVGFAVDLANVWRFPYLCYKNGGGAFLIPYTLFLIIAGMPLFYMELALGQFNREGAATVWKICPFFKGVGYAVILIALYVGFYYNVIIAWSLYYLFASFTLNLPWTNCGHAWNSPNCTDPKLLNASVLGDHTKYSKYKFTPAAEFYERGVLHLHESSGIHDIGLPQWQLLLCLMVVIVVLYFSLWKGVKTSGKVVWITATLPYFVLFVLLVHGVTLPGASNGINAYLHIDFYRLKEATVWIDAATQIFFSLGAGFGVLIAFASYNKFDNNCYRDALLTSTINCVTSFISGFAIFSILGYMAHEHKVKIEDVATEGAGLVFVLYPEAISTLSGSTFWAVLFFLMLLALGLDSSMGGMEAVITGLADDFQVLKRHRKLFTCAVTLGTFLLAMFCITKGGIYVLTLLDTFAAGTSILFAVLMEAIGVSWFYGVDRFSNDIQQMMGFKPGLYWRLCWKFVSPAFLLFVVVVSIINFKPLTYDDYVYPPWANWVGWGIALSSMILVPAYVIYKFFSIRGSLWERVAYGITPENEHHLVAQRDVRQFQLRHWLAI
# Molecular target: T1, NET (norepinephrine transporter) (Rattus norvegicus, UniProt Q63380)
# T1 construct: or frontoparietal cerebral cortex (for 5-HTT and NET); from tissue; host or cells: rat brain frontoparietal cerebral cortex, crude membrane fraction
# Experiment: NET assay, [3H]nisoxetine binding, rat frontoparietal cerebral cortex membranes
# Settings: radioligand, 50 Ci/mmol
# Description: N-phthalimidopropyl-β-CIT (see Example 10) was analyzed as follows. Stock solutions (1 mM) of test agents were made in 95% ethanol/DMSO (1/1, v/v) and stored at −5° C. until used by diluting in a large excess of each assay buffer. Agents are tested at six concentrations in duplicate, with a crude membrane fraction of homogenates of rat brain corpus striatum (for DAT assays) in Tris-citrate buffer (pH 7.4) containing Na^+ ([…]) and Mg^2+ (4 mM) or frontoparietal cerebral cortex (for 5-HTT and NET) in 50 mM Tris-HCl buffer (pH 7.4) containing Na^+ ([…]) and K^+ (5 mM) following methods reported by Neumeyer et al., J. Med. Chem. 37, 1558-1561 (1991), the whole of which is incorporated by reference herein.
substance,measurement,value
[^3H]nisoxetine [reference compound],Kd,0.8 nM
